Assay [1] has as its target T1, 5-HT-3 receptor (Rattus norvegicus, UniProt P35563).
T1 sequence (P35563 24-483): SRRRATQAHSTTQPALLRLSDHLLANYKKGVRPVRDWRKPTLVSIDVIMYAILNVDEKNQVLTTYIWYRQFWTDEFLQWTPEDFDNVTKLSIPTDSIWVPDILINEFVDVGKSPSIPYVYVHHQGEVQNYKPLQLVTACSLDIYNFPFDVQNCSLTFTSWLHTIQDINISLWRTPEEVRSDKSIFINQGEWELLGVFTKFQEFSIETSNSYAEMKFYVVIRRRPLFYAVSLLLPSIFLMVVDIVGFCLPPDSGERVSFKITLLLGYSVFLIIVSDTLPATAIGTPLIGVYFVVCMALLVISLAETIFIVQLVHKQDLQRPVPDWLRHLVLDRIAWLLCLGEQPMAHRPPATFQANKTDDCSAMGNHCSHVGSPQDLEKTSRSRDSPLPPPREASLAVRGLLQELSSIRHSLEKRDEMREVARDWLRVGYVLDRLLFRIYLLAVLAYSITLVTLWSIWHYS
The following applies: for Ki: displacement of [^125 I]-4 binding, Table 1, rat entorhinal cortex homogenates, calculated from IC50 values, 0.64 nM [^125 I]4 (KD 1.5 nM).

In assay [2] the target is T1, 5-HT-3 receptor. In words: Specific binding of [^125 I]-4 in various regions of the rat brain. The arrangement: iodozacopride in various regions of the rat brain; from tissue; host or cells: rat brain regions (amygdala, frontal cortex, entorhinal cortex, hippocampus, hypothalamus, striatum, thalamus, cerebellum). The following applies: 1.5 nM ligand, defined by 10 uM bemesetron, assuming 10% protein concentration. Here is the method: iodozacopride in various regions of the rat brain. Zacopride is
^(a) Specific binding of 1.5 nM [^125 I4 defined by 10 uM
bemesetron (MDL 72222), assuming 10% protein concentration.

The target of assay [3] is T1, 5-HT-3 receptor. Also on record: iodozacopride in various regions of the rat brain; from tissue; host or cells: rat brain regions (amygdala, frontal cortex, entorhinal cortex, hippocampus, hypothalamus, striatum, thalamus, cerebellum). Conditions: 0.6 nM ligand, defined by ondansetron, Laporte et al. 1992, cited from earlier work.

The source of these data is US5723103A, “Substituted benzamides and radioligand analogs and methods of use” (Vanderbilt University, priority 1994, dated 1998).

Each structure is given as a SMILES string. Read-outs that look alike come from different tables or passages of the source.

Turning to `CCCOc1ccc(I)cc1C(=O)N[C@@H]1CN2CCC1CC2` [TDP 9l7], the Ki in assay [1] was 16 nM.
On the same count and under the same terms, in the case of `COc1ccc(I)cc1C(=O)N[C@@H]1CN2CCC1CC2` [TDP 915] it was 18 nM; in that of `CCOc1ccc(I)cc1C(=O)N[C@@H]1CN2CCC1CC2` [TDP 916], 7.3 nM; in that of `C=CCOc1ccc(I)cc1C(=O)N[C@@H]1CN2CCC1CC2` [TDP 918], 10 nM.
The same measure, in the same setting: in the case of `CC(C)Oc1ccc(I)cc1C(=O)N[C@@H]1CN2CCC1CC2` [TDP 919] it was 5.6 nM; in that of `O=C(N[C@@H]1CN2CCC1CC2)c1cc(I)ccc1OCCF` [TDP 920], 18 nM; in that of `O=C(N[C@@H]1CN2CCC1CC2)c1cc(I)ccc1OCCCF` [TDP 921], 24 nM.
Still for that read-out and setting: in the case of `COc1ccc(Br)cc1C(=O)N[C@@H]1CN2CCC1CC2` [TDP 922] it was 7.2 nM; in that of `COc1cc(Br)cc(C(=O)N[C@@H]2CN3CCC2CC3)c1OC` [TDP 923], 0.45 nM; in that of `CCOc1cc(Br)cc(C(=O)N[C@@H]2CN3CCC2CC3)c1OC` [TDP 924], 0.17 nM.
Take `COc1cc(I)cc(C(=O)N[C@@H]2CN3CCC2CC3)c1OC` [TDP 960]: in assay [1], the Ki was 1.5 nM.
Take `COc1cc(Cl)cc(C(=O)N[C@@H]2CN3CCC2CC3)c1OC/C=C/I` [TDP 984]: the Ki in assay [1] was 0.29 nM.
The same measure, in the same setting: to `COc1cc(I)cc(C(=O)N[C@H]2CN3CCC2CC3)c1OC` [TDP 991, (R)-N-[3-1-Azabicyclo [2.2.2.]octyl]-5-iodo-2,3-dimethoxy-benzamide] belongs 19 nM; to `COc1cc(Cl)cc(C(=O)N[C@@H]2CN3CCC2CC3)c1OCCF` [TDP 994], 0.31 nM.
Still for that read-out and setting: in the case of `COc1c(OCCF)cc(Cl)cc1C(=O)N[C@@H]1CN2CCC1CC2` [TDP 999] it was 0.2 nM; in that of `CCOc1c(OC)cc(I)cc1C(=O)N[C@@H]1CN2CCC1CC2` [TDP 1022], 2.7 nM; in that of `COc1c(I)cc(Cl)cc1C(=O)N[C@@H]1CN2CCC1CC2` [TDP 1040], 0.11 nM.
Same read-out and setting: to `C=CCOc1c(I)cc(Cl)cc1C(=O)N[C@@H]1CN2CCC1CC2` [TDP 1046] belongs 0.63 nM.
Regarding `O=C(N[C@@H]1CN2CCC1CC2)c1cc(Cl)cc(I)c1OCCCF` [TDP 1050], the inhibitory constant (Ki) in assay [1] is 1.25 nM.
With `C#CCOc1c(I)cc(Cl)cc1C(=O)N[C@@H]1CN2CCC1CC2` [TDP 1053], the Ki in assay [1] was 0.7 nM.
As to `O=C(N[C@@H]1CN2CCC1CC2)c1cc(Cl)cc(I)c1OCCF` [TDP 1056], the Ki in assay [1] is 0.52 nM.
In the case of `CCOc1c(I)cc(Cl)cc1C(=O)N[C@@H]1CN2CCC1CC2` [TDP 1059], in assay [1], the Ki is 0.4 nM.
Same read-out and setting: in the case of `CC(C)Oc1c(I)cc(Cl)cc1C(=O)N[C@@H]1CN2CCC1CC2` [TDP 1062] it was 0.72 nM; in that of `CCCOc1c(I)cc(Cl)cc1C(=O)N[C@@H]1CN2CCC1CC2` [TDP 1065], 0.8 nM; in that of `COc1ccc(F)cc1C(=O)N[C@@H]1CN2CCC1CC2` [TDP 1087], 5.2 nM.
Regarding `COc1cc([125I])cc(C(=O)N[C@@H]2CN3CCC2CC3)c1OC` [[^125 I]-4, (S)-N-[3-(1-azabicyclo[2.2.2]octyl)]-2,3-dimethoxy-5-[^125 I]iodobenzamide], in assay [1] ((S)-4 vs (R)-4), the “Stereoselectivity of [^125 I]4” value was 14. Besides, the “Specific binding of [^125 I]-4” value in assay [2] (Amygdala) is on record as 2.4 fmol/mprotein; in assay [2] (Cerebellum) it was 0.3 fmol/mprotein; in assay [2] (Entorhinal cortex) it was 2.4 fmol/mprotein; in assay [2] (Frontal cortex), 2.1 fmol/mprotein; in assay [2] (Hippocampus), 1.3 fmol/mprotein; in assay [2] (Hypothalamus), 0.9 fmol/mprotein. The “Specific binding of [^125 I]-4” value in assay [2] (Striatum) is on record as 0.7 fmol/mprotein; in assay [2] (Thalamus), 0.5 fmol/mprotein.
As for `COc1cc(N)c([125I])cc1C(=O)NC1CN2CCC1CC2` (centres unmarked) [[^125 I]iodozacopride], the “Specific binding of [^125 I]iodozacopride” value is on record as 4.4 fmol/mg protein in assay [3] (Amygdala); 0.5 fmol/mg protein in assay [3] (Cerebellum); 3.1 fmol/mg protein in assay [3] (Entorhinal cortex); 2.4 fmol/mg protein in assay [3] (Frontal cortex); 2.1 fmol/mg protein in assay [3] (Hippocampus); 1.1 fmol/mg protein in assay [3] (Hypothalamus). Moreover, in assay [3] (Striatum), the “Specific binding of [^125 I]iodozacopride” value is recorded as 1.0 fmol/mg protein.
